Key:
[1] = target: GFP-Rab8 Q67L (UniProt P61006); experiment: cell-based or functional assay
[2] = target: GS-TAP-tagged Optn (human) (UniProt Q96CV9); experiment: TAP of GS-tagged Optn from HEK-293 cells, LC-MSMS

sequence coverage [2] | unique peptide counts [2] | Substance | colocalization in tight perinuclear spots (immunofluorescence) [1]
– | – | Optn S177A (from UniProt Q96CV9 1-577) | 70%
0.19 | 3 | CALMODULIN. (from UniProt P0DP25 2-149) | –
– | – | Optineurin (Optn), wild type (from UniProt Q96CV9 1-577) | 70%
0.27 | 10 | ACTIN, ALPHA SKELETAL MUSCLE. (from UniProt P68133 3-377) | –
